Reference: PMC13538185, “The PSD-95 inhibitor NA-1 is delivered to the brain upon nasal administration with uptake into the olfactory bulb improved by co-administration with the cell-penetrating peptides lowPro and Tat” (Drug Delivery and Translational Research, 2025)

System: primary porcine olfactory epithelial monolayers
Settings: ALI 20-21 days, apical to basolateral, 0.5 mg/mL in transport medium (MEM, 0.05% BSA), 37 °C, fluorescence read-out, mean (N = 3-4, n = 3)

Fraction of applied compound permeated the barrier upon 24 h of incubation: 3.7%
Substance: FITC-dextran
